Reference: patent US20090099157A1, “TETRAHYDRO-PYRAZOLO-PYRIDINE THIOETHER MODULATORS OF CATHEPSIN S” (priority 2007, published 2009)

By UniProt entry, the sequences of proteins in these tests, tags left out. Residues count along the entry.
UniProt P25774, 115-331: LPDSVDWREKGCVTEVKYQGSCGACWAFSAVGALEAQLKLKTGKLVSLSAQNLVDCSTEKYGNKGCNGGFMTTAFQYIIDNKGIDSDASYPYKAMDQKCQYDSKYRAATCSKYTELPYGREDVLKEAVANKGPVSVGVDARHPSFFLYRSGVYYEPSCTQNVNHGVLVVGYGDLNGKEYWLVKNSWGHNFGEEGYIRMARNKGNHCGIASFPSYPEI

Biological target: Recombinant human cathepsin S (CatS) (Homo sapiens, UniProt P25774)
Assay: biochemical

| pIC50 | Compound |
| --- | --- |
| 6.72 | CS(=O)(=O)N1CCc2c(c(-c3ccc(C(F)(F)F)c(SCCN4CCC(F)(F)CC4)c3)nn2C[C@@H](O)CN2CCOCC2)C1 [Example 515, (2S)-1-{3-[3-{[2-(4,4-Difluoropiperidin-1-yl)ethyl]sulfanyl}-4-(trifluoromethyl)phenyl]-5-(methylsulfonyl)-4,5,6,7-tetrahydro-1H-pyrazolo[4,3-c]pyridin-1-yl}-3-morpholin-4-ylpropan-2-ol] |
| 7.40 | CS(=O)(=O)N1CCc2c(c(-c3ccc(C(F)(F)F)c(SCCN4CCOCC4)c3)nn2CC(O)CN2CCN(c3c(Cl)cncc3Cl)CC2)C1 (stereo not shown) [Example 868, 1-[4-(3,5-Dichloropyridin-4-yl)piperazin-1-yl]-3-[5-(methylsulfonyl)-3-{3-[(2-morpholin-4-ylethyl)sulfanyl]-4-(trifluoromethyl)phenyl}-4,5,6,7-tetrahydro-1H-pyrazolo[4,3-c]pyridin-1-yl]propan-2-ol] |
| 8.10 | CS(=O)(=O)N1CCc2c(c(-c3ccc(C(F)(F)F)c(SCC(=O)N4CC[C@H](O)C4)c3)nn2CC(O)CN2CCC(c3ccccn3)CC2)C1 (stereo partly drawn) [Example 709, (3S)-1-({[5-{1-[2-Hydroxy-3-(4-pyridin-2-ylpiperidin-1-yl)propyl]-5-(methylsulfonyl)-4,5,6,7-tetrahydro-1H-pyrazolo[4,3-c]pyridin-3-yl}-2-(trifluoromethyl)phenyl]sulfanyl}acetyl)pyrrolidin-3-ol] |
| 6.66 | CC(C)(C)C1CCN(C[C@H](O)Cn2nc(-c3ccc(C(F)(F)F)c(SCCN4CC[C@H](F)C4)c3)c3c2CCN(S(C)(=O)=O)C3)CC1 [Example 605, (2S)-1-[4-(1,1-Dimethylethyl)piperidin-1-yl]-3-{3-[3-({2-[(3S)-3-fluoropyrrolidin-1-yl]ethyl}sulfanyl)-4-(trifluoromethyl)phenyl]-5-(methylsulfonyl)-4,5,6,7-tetrahydro-1H-pyrazolo[4,3-c]pyridin-1-yl}propan-2-ol] |
| 7.22 | O=C(CO)N1CCc2c(c(-c3ccc(C(F)(F)F)c(SCCN4CCC(F)(F)C4)c3)nn2CC(O)CN2CCC(O)(c3ccccn3)CC2)C1 (stereo not shown) [Example 730, 1-(3-{3-[3-{[2-(3,3-Difluoropyrrolidin-1-yl)ethyl]sulfanyl}-4-(trifluoromethyl)phenyl]-5-(hydroxyacetyl)-4,5,6,7-tetrahydro-1H-pyrazolo[4,3-c]pyridin-1-yl}-2-hydroxypropyl)-4-pyridin-2-ylpiperidin-4-ol] |
| 7.10 | CC1CC(C)CN(CCSc2cc(-c3nn(CCCN4CCC(N5CCCC5=O)CC4)c4c3CN(S(C)(=O)=O)CC4)ccc2C(F)(F)F)C1 (stereo not shown) [Example 9, 1-{1-[3-(3-{3-[2-(3,5-Dimethyl-piperidin-1-yl)-ethylsulfanyl]-4-trifluoromethyl-phenyl}-5-methanesulfonyl-4,5,6,7-tetrahydro-pyrazolo[4,3-c]pyridin-1-yl)-propyl]-piperidin-4-yl}-pyrrolidin-2-one] |
| 7.70 | N#Cc1ccccc1N1CCN(CC(O)Cn2nc(-c3ccc(C(F)(F)F)c(SCCN4CCCCC4)c3)c3c2CCN(C(=O)CO)C3)CC1 (stereo not shown) [Example 676, 2-(4-{2-Hydroxy-3-[5-(hydroxyacetyl)-3-{3-[(2-piperidin-1-ylethyl)sulfanyl]-4-(trifluoromethyl)phenyl}-4,5,6,7-tetrahydro-1H-pyrazolo[4,3-c]pyridin-1-yl]propyl}piperazin-1-yl)benzonitrile] |
| 6.74 | CS(=O)(=O)N1CCc2c(c(-c3ccc(C(F)(F)F)c(SCCN4CCCC4)c3)nn2CC(O)CN2CCC(N3CC(O)CC3=O)CC2)C1 (stereo not shown) [Example 685, 4-Hydroxy-1-(1-{2-hydroxy-3-[5-(methylsulfonyl)-3-{3-[(2-pyrrolidin-1-ylethyl)sulfanyl]-4-(trifluoromethyl)phenyl}-4,5,6,7-tetrahydro-1H-pyrazolo[4,3-c]pyridin-1-yl]propyl}piperidin-4-yl)pyrrolidin-2-one] |
| 6.27 | CN(CCSc1cc(-c2nn(CCCN3CCC(N4CCCC4=O)CC3)c3c2CN(S(C)(=O)=O)CC3)ccc1C(F)(F)F)C1CCCCC1 [Example 27, 1-{1-[3-(3-{3-[2-(Cyclohexyl-methyl-amino)-ethylsulfanyl]-4-trifluoromethyl-phenyl}-5-methanesulfonyl-4,5,6,7-tetrahydro-pyrazolo[4,3-c]pyridin-1-yl)-propyl]-piperidin-4-yl}-pyrrolidin-2-one] |
| 6.55 | CS(=O)(=O)N1CCc2c(c(-c3ccc(C(F)(F)F)c(SCCN4CCCC(F)C4)c3)nn2C[C@@H](O)CN2CCCCC2)C1 (stereo partly drawn) [Example 206, (2S)-1-{3-[3-{[2-(3-Fluoropiperidin-1-yl)ethyl]sulfanyl}-4-(trifluoromethyl)phenyl]-5-(methylsulfonyl)-4,5,6,7-tetrahydro-1H-pyrazolo[4,3-c]pyridin-1-yl}-3-piperidin-1-ylpropan-2-ol] |
| 7.22 | O=C(CSc1cc(-c2nn(CC(O)CN3CCC(c4ccccn4)CC3)c3c2CNCC3)ccc1C(F)(F)F)N1CCCC1 (stereo not shown) [Example 271, 1-(3-{3-[(2-Oxo-2-pyrrolidin-1-ylethyl)sulfanyl]-4-(trifluoromethyl)phenyl}-4,5,6,7-tetrahydro-1H-pyrazolo[4,3-c]pyridin-1-yl)-3-(4-pyridin-2-ylpiperidin-1-yl)propan-2-ol] |
| 6.48 | CS(=O)(=O)N1CCc2c(c(-c3ccc(C(F)(F)F)c(SCCN4CCC(F)CC4)c3)nn2C[C@@H](O)CN2CCC[C@@H](O)C2)C1 [Example 487, (3R)-1-[(2S)-3-{3-[3-{[2-(4-Fluoropiperidin-1-yl)ethyl]sulfanyl}-4-(trifluoromethyl)phenyl]-5-(methylsulfonyl)-4,5,6,7-tetrahydro-1H-pyrazolo[4,3-c]pyridin-1-yl}-2-hydroxypropyl]piperidin-3-ol] |
| 6.03 | CN(C)CC1CCCN(CCCn2nc(-c3ccc(C(F)(F)F)c(SCCN4CCCCC4)c3)c3c2CCN(S(C)(=O)=O)C3)C1 (stereo not shown) [Example 535, N,N-Dimethyl-1-(1-{3-[5-(methylsulfonyl)-3-{3-[(2-piperidin-1-ylethyl)sulfanyl]-4-(trifluoromethyl)phenyl}-4,5,6,7-tetrahydro-1H-pyrazolo[4,3-c]pyridin-1-yl]propyl}piperidin-3-yl)methanamine] |
| 6.24 | Cn1ccnc1C(=O)N1CCc2c(c(-c3ccc(C(F)(F)F)c(SCCN4CCC(F)CC4)c3)nn2C[C@@H](O)CN2CCCCC2)C1 [Example 569, (2S)-1-{3-[3-{[2-(4-Fluoropiperidin-1-yl)ethyl]sulfanyl}-4-(trifluoromethyl)phenyl]-5-[(1-methyl-1H-imidazol-2-yl)carbonyl]-4,5,6,7-tetrahydro-1H-pyrazolo[4,3-c]pyridin-1-yl}-3-piperidin-1-ylpropan-2-ol] |
| 5.89 | CN(C)CCSc1cc(-c2nn(CCCN3CCC(N4CCCC4=O)CC3)c3c2CN(S(C)(=O)=O)CC3)ccc1C(F)(F)F [Example 33, 1-[1-(3-{3-[3-(2-Dimethylamino-ethylsulfanyl)-4-trifluoromethyl-phenyl]-5-methanesulfonyl-4,5,6,7-tetrahydro-pyrazolo[4,3-c]pyridin-1-yl}-propyl)-piperidin-4-yl]-pyrrolidin-2-one] |
| 5.02 | OC(CN1CCC(N2CCCC2)CC1)Cn1nc(-c2ccc(C(F)(F)F)c(SCCN3CCCCC3)c2)c2c1CCNC2 (stereo not shown) [Example 231, 1-(3-{3-[(2-Piperidin-1-ylethyl)sulfanyl]-4-(trifluoromethyl)phenyl}-4,5,6,7-tetrahydro-1H-pyrazolo[4,3-c]pyridin-1-yl)-3-(4-pyrrolidin-1-ylpiperidin-1-yl)propan-2-ol] |
| 5.96 | C[C@H]1COCCN1CCSc1cc(-c2nn(C[C@@H](O)CN3CCOCC3)c3c2CN(S(C)(=O)=O)CC3)ccc1C(F)(F)F [Example 223, (2S)-1-{3-[3-({2-[(3S)-3-Methylmorpholin-4-yl]ethyl}sulfanyl)-4-(trifluoromethyl)phenyl]-5-(methylsulfonyl)-4,5,6,7-tetrahydro-1H-pyrazolo[4,3-c]pyridin-1-yl}-3-morpholin-4-ylpropan-2-ol] |
| 7.40 | CS(=O)(=O)N1CCc2c(c(-c3ccc(C(F)(F)F)c(SCCN4CCC(F)CC4)c3)nn2C[C@H](O)CN2CCN(c3ccccc3)CC2)C1 [Example 737, (2R)-1-{3-[3-{[2-(4-Fluoropiperidin-1-yl)ethyl]sulfanyl}-4-(trifluoromethyl)phenyl]-5-(methylsulfonyl)-4,5,6,7-tetrahydro-1H-pyrazolo[4,3-c]pyridin-1-yl}-3-(4-phenylpiperazin-1-yl)propan-2-ol] |
| 8.00 | CS(=O)(=O)N1CCc2c(c(-c3ccc(C(F)(F)F)c(SCCN4CCCC(F)C4)c3)nn2C[C@@H](O)CN2CCC(c3ccccn3)CC2)C1 (stereo partly drawn) [Example 207, (2S)-1-{3-[3-{[2-(3-Fluoropiperidin-1-yl)ethyl]sulfanyl}-4-(trifluoromethyl)phenyl]-5-(methylsulfonyl)-4,5,6,7-tetrahydro-1H-pyrazolo[4,3-c]pyridin-1-yl}-3-(4-pyridin-2-ylpiperidin-1-yl)propan-2-ol] |
| 5.43 | CC1(C)CCN(C[C@H](O)Cn2nc(-c3ccc(C(F)(F)F)c(SCCN4CCC(F)CC4)c3)c3c2CCNC3)CC1 [Example 311, (2S)-1-(4,4-Dimethylpiperidin-1-yl)-3-{3-[3-{[2-(4-fluoropiperidin-1-yl)ethyl]sulfanyl}-4-(trifluoromethyl)phenyl]-4,5,6,7-tetrahydro-1H-pyrazolo[4,3-c]pyridin-1-yl}propan-2-ol] |
| 6.74 | OC(CN1CCC(c2ccccn2)CC1)Cn1nc(-c2ccc(C(F)(F)F)c(SCCN3CCCCC3)c2)c2c1CCNC2 (stereo not shown) [Example 230, 1-(3-{3-[(2-Piperidin-1-ylethyl)sulfanyl]-4-(trifluoromethyl)phenyl}-4,5,6,7-tetrahydro-1H-pyrazolo[4,3-c]pyridin-1-yl)-3-(4-pyridin-2-ylpiperidin-1-yl)propan-2-ol] |
| 5.98 | CN(C)C(=O)N1CCc2c(c(-c3ccc(C(F)(F)F)c(SCCN4CCC(F)CC4)c3)nn2C[C@@H](O)CN2CCCCC2)C1 [Example 367, 3-[3-{[2-(4-Fluoropiperidin-1-yl)ethyl]sulfanyl}-4-(trifluoromethyl)phenyl]-1-[(2S)-2-hydroxy-3-piperidin-1-ylpropyl]-N,N-dimethyl-1,4,6,7-tetrahydro-5H-pyrazolo[4,3-c]pyridine-5-carboxamide] |

pIC50: −log10 of the molar value.
